Measurements reported in patent US20240246954A1, “COMPOSITIONS AND METHODS FOR INHIBITING KRAS” (TheRas, Inc., priority 2021, published 2024).
pIC50: −log10 of the molar value.

Amino acid sequences for entries named in this document (tags omitted). Residues count along the entry.
UniProt P01116, 1-169 isoform 2 G12D limits assumed: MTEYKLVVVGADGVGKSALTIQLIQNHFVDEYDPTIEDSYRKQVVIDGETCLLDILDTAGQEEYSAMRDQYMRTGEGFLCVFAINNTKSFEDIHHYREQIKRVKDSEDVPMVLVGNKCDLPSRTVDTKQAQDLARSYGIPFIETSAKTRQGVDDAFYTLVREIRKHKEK
UniProt P01116, 1-169 isoform 2 G12D/Q25A limits assumed: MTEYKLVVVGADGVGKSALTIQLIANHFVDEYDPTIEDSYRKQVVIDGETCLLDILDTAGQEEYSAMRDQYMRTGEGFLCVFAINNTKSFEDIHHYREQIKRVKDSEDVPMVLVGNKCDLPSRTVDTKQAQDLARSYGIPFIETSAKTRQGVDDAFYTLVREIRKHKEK

Columns and labels:
[1] = target: Avi-KRAS G12D/Q25A (1-169) GppNHp/3×FLAG-PI3KCA (157-299) (Homo sapiens, UniProt P01116, G12D/Q25A); assay: HTRF PI3KCA-KRAS G12D/Q25A-GppNHp disruption assay; type: biochemical; conditions: read-out: PI3KCA-GppNHp-KRAS G12D/Q25A disruption, 1 h incubation
[2] = target: Avi-KRAS G12D (1-169) GppNHp/RAF1 RBD-3×FLAG (52-151) (Homo sapiens, UniProt P01116, G12D); assay: HTRF Raf1-KRAS G12D-GppNHp disruption assay; type: biochemical; conditions: read-out: Raf1-GppNHp-KRAS G12D disruption, 1 h incubation

CN1CCC[C@H]1COc1nc(N[C@H]2C[C@@H](N)C2)c2cc(Cl)c(-c3ccc(F)c4sc(N)nc34)c(F)c2n1
pIC50 [1]: 4.52 to 5.00
pIC50 [2]: 4.52 to 5.00
